Reference: patent US20240116920A1 (priority 2020, published 2024)

By UniProt entry, the sequences of proteins in these tests, tags left out. Where a name states a change or a piece, a line headed by the entry shows the natural chain unless it says otherwise.
UniProt P23458: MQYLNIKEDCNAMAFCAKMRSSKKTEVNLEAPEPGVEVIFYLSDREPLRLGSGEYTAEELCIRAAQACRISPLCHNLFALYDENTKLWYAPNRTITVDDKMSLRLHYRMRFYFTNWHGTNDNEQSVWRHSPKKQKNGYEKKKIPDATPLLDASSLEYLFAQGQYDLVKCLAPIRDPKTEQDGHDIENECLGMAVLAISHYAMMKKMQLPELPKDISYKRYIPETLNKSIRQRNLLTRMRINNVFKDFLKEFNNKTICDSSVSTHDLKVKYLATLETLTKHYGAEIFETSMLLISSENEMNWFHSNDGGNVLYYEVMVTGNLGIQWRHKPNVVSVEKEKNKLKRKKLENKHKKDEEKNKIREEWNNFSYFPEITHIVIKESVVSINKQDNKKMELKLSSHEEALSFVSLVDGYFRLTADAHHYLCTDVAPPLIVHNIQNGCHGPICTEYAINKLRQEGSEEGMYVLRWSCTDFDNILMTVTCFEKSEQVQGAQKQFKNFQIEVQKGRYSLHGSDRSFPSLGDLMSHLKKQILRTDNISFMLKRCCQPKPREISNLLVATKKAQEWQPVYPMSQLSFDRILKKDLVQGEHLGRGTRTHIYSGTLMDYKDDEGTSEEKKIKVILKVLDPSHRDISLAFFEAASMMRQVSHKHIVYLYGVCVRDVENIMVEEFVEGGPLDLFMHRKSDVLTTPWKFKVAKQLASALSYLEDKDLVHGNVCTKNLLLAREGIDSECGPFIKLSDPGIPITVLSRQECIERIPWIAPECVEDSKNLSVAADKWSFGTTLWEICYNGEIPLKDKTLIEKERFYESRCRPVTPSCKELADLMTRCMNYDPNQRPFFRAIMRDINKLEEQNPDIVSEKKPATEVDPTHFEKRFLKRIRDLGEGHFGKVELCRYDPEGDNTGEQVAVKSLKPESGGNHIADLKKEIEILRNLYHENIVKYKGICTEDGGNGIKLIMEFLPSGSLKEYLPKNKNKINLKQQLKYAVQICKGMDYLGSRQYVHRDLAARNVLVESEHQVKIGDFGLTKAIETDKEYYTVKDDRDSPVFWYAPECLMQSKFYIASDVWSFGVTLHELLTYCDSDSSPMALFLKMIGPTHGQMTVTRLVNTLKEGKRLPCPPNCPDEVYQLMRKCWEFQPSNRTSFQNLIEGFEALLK

Molecular target: JAK1 (Homo sapiens, UniProt P23458)
Assay: biochemical

CNC(=O)c1cnc2[nH]ccc2c1N[C@@H]1CCN(Cc2cnc(C(F)(F)F)nc2)[C@H](C)C1 (racemic) [compound 49]
IC50: 3.04 nM

CNC(=O)c1cnc2[nH]ccc2c1N[C@@H]1CCN(Cc2ccccc2)C[C@H]1F (relative stereo) [43a, 4-((trans-1-Benzyl-3-fluoropiperidin-4-yl)amino)-N-methyl-1H-pyrrolo[2,3-b]pyridine-5-carboxamide]
IC50: 35.3 nM

CNC(=O)c1cnc2[nH]ccc2c1N[C@@H]1CCN(Cc2ccc(Cl)cc2)C[C@H]1F (relative stereo) [43b, 4-((trans-1-(4-Chlorobenzyl)-3-fluoropiperidin-4-yl)amino)-N-methyl-1H-pyrrolo[2,3-b]pyridine-5-carboxamide]
IC50: 48.4 nM

CNC(=O)c1cnc2[nH]ccc2c1N[C@@H]1CCN(Cc2cccc(OC)c2)C[C@H]1F (relative stereo) [43c, 4-((trans-1-(3-Methoxybenzyl)-3-fluoropiperidin-4-yl)amino)-N-methyl-1H-pyrrolo[2,3-b]pyridine-5-carboxamide]
IC50: 16.5 nM

CNC(=O)c1cnc2[nH]ccc2c1N[C@@H]1CCN(Cc2cccc(C#N)c2)C[C@H]1F (relative stereo) [43e, 4-((trans-1-(3-Cyanobenzyl)-3-fluoropiperidin-4-yl)amino)-N-methyl-1H-pyrrolo[2,3-b]pyridine-5-carboxamide]
IC50: 15 nM

CNC(=O)c1cnc2[nH]ccc2c1N[C@@H]1CCN(Cc2ccc(C#N)cc2)C[C@H]1F (relative stereo) [43f, 4-((trans-1-(4-Cyanobenzyl)-3-fluoropiperidin-4-yl)amino)-N-methyl-1H-pyrrolo[2,3-b]pyridine-5-carboxamide]
IC50: 11.8 nM

CNC(=O)c1cnc2[nH]ccc2c1N[C@H]1CCN(Cc2ccccc2)C[C@H]1F (relative stereo) [44a, 4-((cis-1-Benzyl-3-fluoropiperidin-4-yl)amino)-N-methyl-1H-pyrrolo[2,3-b]pyridine-5-carboxamide]
IC50: 12 nM

CNC(=O)c1cnc2[nH]ccc2c1N[C@H]1CCN(Cc2cccc(Cl)c2)C[C@H]1F (relative stereo) [44b, 4-((cis-1-(3-Chlorobenzyl)-3-fluoropiperidin-4-yl)amino)-N-methyl-1H-pyrrolo[2,3-b]pyridine-5-carboxamide]
IC50: 6.39 nM

CNC(=O)c1cnc2[nH]ccc2c1N[C@H]1CCN(Cc2ccc(Cl)cc2)C[C@H]1F (relative stereo) [44c, 4-((cis-1-(4-Chlorobenzyl)-3-fluoropiperidin-4-yl)amino)-N-methyl-1H-pyrrolo[2,3-b]pyridine-5-carboxamide]
IC50: 4.24 nM

CNC(=O)c1cnc2[nH]ccc2c1N[C@H]1CCN(Cc2ccc(OC)cc2)C[C@H]1F (relative stereo) [44d, 4-((cis-1-(4-Methoxybenzyl)-3-fluoropiperidin-4-yl)amino)-N-methyl-1H-pyrrolo[2,3-b]pyridine-5-carboxamide]
IC50: 7.27 nM

CNC(=O)c1cnc2[nH]ccc2c1N[C@H]1CCN(Cc2cccc(C#N)c2)C[C@H]1F (relative stereo) [44e, 4-((cis-1-(3-Cyanobenzyl)-3-fluoropiperidin-4-yl)amino)-N-methyl-1H-pyrrolo[2,3-b] pyridine-5-carboxamide]
IC50: 3.15 nM

CNC(=O)c1cnc2[nH]ccc2c1N[C@H]1CCN(Cc2ccc(C#N)cc2)C[C@H]1F (relative stereo) [44f, 4-((cis-1-(4-Cyanobenzyl)-3-fluoropiperidin-4-yl)amino)-N-methyl-1H-pyrrolo[2,3-b]pyridine-5-carboxamide]
IC50: 8.32 nM

CNC(=O)c1cnc2[nH]ccc2c1NC1CCN(Cc2ccc(OC)cc2)CC1F (stereo not drawn) [43d, 4-((trans-1-(4-Methoxybenzy0-3-fluoropiperidin-4-yl)amino)-N-methyl-1H-pyrrolo[2,3-b]pyridine-5-carboxamide]
IC50: 73.6 nM

CNC(=O)c1cnc2[nH]ccc2c1NC1CCN(Cc2ccccc2)CC1(F)F (stereo not shown) [45a]
IC50: 105 nM

CNC(=O)c1cnc2[nH]ccc2c1NC1CCN(Cc2cccc(Cl)c2)CC1(F)F (stereo not shown) [45b]
IC50: 63.2 nM

CNC(=O)c1cnc2[nH]ccc2c1NC1CCN(Cc2ccc(Cl)cc2)CC1(F)F (stereo not shown) [45c]
IC50: 45.5 nM
